# AlphaSeq binding of Ab-14 heavy chain variants to a spike HR2 peptide

Target: peptide PDVDLGDISGINAS, taken from heptad repeat 2 (HR2) of SARS-CoV-2 spike.

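Designed CDR sequences, proposed from the first random library and measured here. Group labels follow the data file (Ctrl: baseline library sampled from a position-specific scoring matrix, with some repeated check sequences; Rand: our label for a block that the file lists under HC and that is probably the random mutants of the ten best first-round binders; En: ensemble of fine-tuned language models; GP: Gaussian process model; GPLM: also part of the Gaussian process libraries; HC: hill climbing; Gen: genetic algorithm; Gibbs: Gibbs sampling; a sequence that several methods proposed may carry one label only). In AlphaSeq, yeast of one mating type display the scFv and yeast of the other type display the target. Pairs that bind mate more often; barcode pairs of the diploids are counted by sequencing. Read counts were normalised to the haploid input and turned into Kd by a linear fit to BCL2-family pairs of known affinity, for each replicate. The assay was run in six technical replicates.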

Ab-14 is the parent antibody, in scFv form: VH, then a 15-residue (Gly4Ser)3 linker, then VL. The light chain is unchanged in all variants.
VH: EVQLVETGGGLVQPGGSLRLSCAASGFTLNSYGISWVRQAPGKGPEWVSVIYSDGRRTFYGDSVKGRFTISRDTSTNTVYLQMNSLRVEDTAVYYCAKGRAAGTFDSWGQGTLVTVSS
VL: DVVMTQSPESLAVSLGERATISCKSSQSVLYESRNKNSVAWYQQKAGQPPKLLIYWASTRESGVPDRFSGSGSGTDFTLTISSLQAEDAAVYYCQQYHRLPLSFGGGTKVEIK

Each variant is given by its three heavy chain CDRs, as the data file delimits them; those of the parent are GFTLNSYGIS, VIYSDGRRTFYGDSVK, GRAAGTFDS.
Each Kd is an estimate from the mating assay, the geometric mean of the replicates in which the pair was seen; lower is stronger.
A pair that was not seen in any replicate is written "no signal"; this usually means weak binding, but a binder can also be missed.

apparent Kd	detected	control signals	CDR-H1	CDR-H2	CDR-H3	group
2.0 nM	6 of 6	1 of 18	GFQLNSYGIS	VIYADGQRTFYGDSVK	GRAAGTFDS	Ctrl
no signal	0 of 6	0 of 18	GFDLNEYGIS	VIYADGIRTAYSDKVK	GMDGIVILF	En_Gibbs
no signal	0 of 6	0 of 18	GFNLDEYGIS	VIYADGHRMFVSNSVK	GENADALFV	En_Gibbs
no signal	0 of 6	0 of 18	GFTLNSYGIS	VIYSDGMRTFYGDSVK	GFVTGTFDS	Ctrl
2.8 nM	6 of 6	0 of 18	GFTLNSYGIS	VIYSDGRRVFYGDNVK	GRAAGTFSS	Ctrl
7.4 nM	2 of 6	0 of 18	GFDLNEYGIS	VIYADGRRTFYSDSVK	GNAGGTFDI	En_HC
no signal	0 of 6	0 of 18	GFTLNSYGIS	VIYSDGRRTFYDWSVK	GQEAGTFDS	GP_HC
570 pM	6 of 6	0 of 18	GFELNSYGIS	VIYADGRRTFYGDSVK	GQAAGTFDM	GP_Gen
no signal	0 of 6	0 of 18	GFDLNSYGIS	VIYSDGRRTFYIDSVK	GRAAGTFVM	GP_HC
no signal	0 of 6	0 of 18	LFTLNSYGIS	VIYSDGRRTFYGDSVK	GRAAGTFSS	Ctrl
6.3 nM	6 of 6	1 of 18	GVALNDYGIS	VIYSDGRRTAYGDSVK	GRAAGTFDS	Ctrl
no signal	0 of 6	0 of 18	GFTLNSYGIS	VIYSDGRRTFYGDSVK	GRATGTFRS	Ctrl
33 nM	6 of 6	1 of 18	GFTLESYGIS	VIYSDGRRTFYGDSVK	GRIAGTFDS	Ctrl
no signal	0 of 6	0 of 18	HFKLNEYGIH	VIYSDGRRTFYGDSVK	GRAAGTFKV	Ctrl
no signal	0 of 6	0 of 18	GFTLNSYGIS	VIYSDGRRTEYGDSVK	GRAAGTFDW	Ctrl
no signal	0 of 6	0 of 18	GDGLEEYGIS	VIYADGMRESYVNDVK	GQKGGIFNL	En_Gibbs
no signal	0 of 6	1 of 18	GFTLNDYGIS	VIYADGRRTFYGDSVK	GANDGTFDS	Ctrl
26 pM	4 of 6	0 of 18	GFDLEDYGIS	VIYADGMRTAYTDSVK	GEVAGTFDL	En_Gen
720 pM	6 of 6	0 of 18	GFDLEEYGIS	VIYADGKRTAYADSVK	GNVAGTFDQ	En_Gen
1.1 nM	6 of 6	0 of 18	GFSLNSYGIS	VIYSDGRRTFYGDNVK	GEAAGTFDA	GPLM_Gibbs
2.6 nM	6 of 6	0 of 18	GFVLNSYGIS	VIYADGRRTFYGDSVK	GRTAGTFDS	GPLM_Gibbs
7.3 nM	5 of 6	0 of 18	EFDLQEYGIS	VIYADGKREAYKDKFK	GQVAGTFDE	En_Gibbs
no signal	0 of 6	0 of 18	GMTLNSYGIS	VIYADGRRTFNGDSVK	GRAAGTNKS	Rand
no signal	0 of 6	0 of 18	GVGLNSYGIS	VIYSDGRRTFYGDSVK	GRAAGDFDS	Ctrl
no signal	0 of 6	0 of 18	GFTLNSYGIS	VIYSDGRRTMYEDSVK	NRAAGLFKS	Ctrl
no signal	0 of 6	0 of 18	GFDLNSYGIS	VIYSDGRRTFYGDSVK	GRTAGTFNS	GPLM_HC
36 nM	12 of 12	1 of 36	GFTLNEYGIS	VIYSDGRRTFYGDSVK	GRAAGTFDD	Ctrl+GP_HC
no signal	0 of 6	0 of 18	GFTLNQYGIQ	VIYSDGRRTFYGDSVK	GRAAGTGDS	Ctrl
33 nM	5 of 6	0 of 18	GFELNSYGIS	VIYSDGRRTFYKDSVK	GEAAGTFDS	GPLM_Gibbs
19 nM	5 of 6	1 of 18	GFNINEYGVS	VIYADGERTYYADKVK	GHNGVMALD	En_Gibbs
73 pM	6 of 6	0 of 18	GFNLDEYGIS	VIYADGVRTAYADSVK	GNVAGTFDV	En_Gen
350 pM	6 of 6	0 of 18	GFDLNEYGIS	VIYADGMRTAYANDVK	GENAGTFDI	En_Gen
130 nM	1 of 6	0 of 18	GFSLNCYGIS	VIYSDGRRTFYDDSVK	GQLAGTFDS	GP_HC
1.8 nM	6 of 6	0 of 18	GFTLNEYGIS	VIYSDGRRTFYSDAVK	GRTAGTFDS	GP_HC
38 pM	6 of 6	0 of 18	GFDLDEYGIS	VIYADGMRKAYADSVK	GENAGTFDL	En_Gen
140 nM	1 of 6	0 of 18	GFKLNSYGIS	VIYSDGRRTFYGDSVK	GREASTFTS	Ctrl
12 nM	6 of 6	0 of 18	GFDLNSYGIS	VIYSDGRRTFYQDSVK	GNAAGTFDS	GPLM_HC
790 pM	6 of 6	0 of 18	GFELNSYGIS	VIYSDGQRTFYADDVK	GRTAGTFDS	GP_Gibbs
no signal	0 of 6	0 of 18	GFTLNSYGIS	VIYSDGMRTFYGDSVK	GRTAGTFWS	GP_Gibbs
no signal	0 of 6	0 of 18	GFNLEEYGIS	VIYADGMRSEYADNVK	GHKGNTFQD	En_Gibbs
27 pM	6 of 6	0 of 18	GFDLNEYGIS	VIYADGRRTFYQDSFK	GENAGTFDQ	En_HC
3.3 nM	6 of 6	0 of 18	GFSLNSYGIS	VIYSDGRRTFYADNVK	GEAAGTFDS	GPLM_Gen
no signal	0 of 6	1 of 18	GFTLNSYGIS	VIYSDGFRTFYGDSVK	GWAAGTFDS	Ctrl
85 pM	5 of 6	0 of 18	GFDLNEYGIS	VIYADGRRTFYADSVK	GHVAGTFDS	En_HC
920 pM	6 of 6	0 of 18	GFDLDEYGIS	VIYADGRRTFYTDSVK	GGNAGTFDQ	En_HC
340 pM	6 of 6	0 of 18	GFDLNEYGIS	VIYADGMRTAYADKVK	GNVAGTFDV	En_Gen
no signal	0 of 6	0 of 18	GQDLAEYGIS	VIYADGKRTYYAQDVK	GTNVGQGGT	En_Gibbs
no signal	0 of 6	0 of 18	GDQLDEYGIS	VIYADGMRTMYADSFK	GNKSVNIGI	En_Gibbs
52 nM	2 of 6	0 of 18	GFALNEYGIS	VIYSDGRRTWYGDSVK	GRTAGTFDS	GP_Gibbs
73 pM	6 of 6	0 of 18	GFDLNEYGIS	VIYADGKRTAYSDSVK	GANAGTFDI	En_Gen
11 nM	6 of 6	0 of 18	GFELNSYGIS	VIYSDGRRTFYGDQVK	GEAAGTFDS	GP_Gen
no signal	0 of 6	0 of 18	GFELNSYGIS	VIYSDGRRTFYGDSVK	GEAAGTFDN	GP_Gen
no signal	0 of 6	0 of 18	GNTLNEYGIS	VIYADGIRKAYSDNVK	GMNGDTFTQ	En_Gibbs
40 nM	1 of 6	1 of 18	GFDLDEYGIS	VIYADGTRKMYAPTFK	GEHGGTFLM	En_Gibbs
no signal	0 of 6	0 of 18	GFTLNSYGIS	VIYSDGRRTFYGDEVK	GRAAITFDS	Ctrl

Repeated from above, the 5 best binders with a signal in all replicates:

CDR-H1,CDR-H2,CDR-H3,group,apparent Kd,detected,control signals
GFDLNEYGIS,VIYADGRRTFYQDSFK,GENAGTFDQ,En_HC,27 pM,6 of 6,0 of 18
GFDLDEYGIS,VIYADGMRKAYADSVK,GENAGTFDL,En_Gen,38 pM,6 of 6,0 of 18
GFDLNEYGIS,VIYADGKRTAYSDSVK,GANAGTFDI,En_Gen,73 pM,6 of 6,0 of 18
GFNLDEYGIS,VIYADGVRTAYADSVK,GNVAGTFDV,En_Gen,73 pM,6 of 6,0 of 18
GFDLNEYGIS,VIYADGMRTAYADKVK,GNVAGTFDV,En_Gen,340 pM,6 of 6,0 of 18

Values of this round are not directly comparable with the first-round values of the same sequences.
Of ten entries with the parent sequence, four were seen in most replicates (averages 2.2 nM to 240 nM), three in one and three in none, so single entries are noisy.
As a blank, each scFv also met three strains without target: over all heavy chain designs, 1% of these pairings were detected, typically at 120 nM and seldom below 7.0 nM. For each scFv, signals with the empty controls are counted beside the result.
A sequence that the file lists under several names has all its replicates pooled.
The authors' rule: three or more of the six replicates give a measured affinity, fewer mean a poor binder.

From the AlphaSeq antibody data of Li et al. 2023 (doi:10.1038/s41467-023-39022-2), copy in the FLAb collection.